Measured values reported in PMC10354740 (2022).

By UniProt entry, the sequences of proteins in these tests, tags left out.
UniProt P41595, whole entry, species assumed: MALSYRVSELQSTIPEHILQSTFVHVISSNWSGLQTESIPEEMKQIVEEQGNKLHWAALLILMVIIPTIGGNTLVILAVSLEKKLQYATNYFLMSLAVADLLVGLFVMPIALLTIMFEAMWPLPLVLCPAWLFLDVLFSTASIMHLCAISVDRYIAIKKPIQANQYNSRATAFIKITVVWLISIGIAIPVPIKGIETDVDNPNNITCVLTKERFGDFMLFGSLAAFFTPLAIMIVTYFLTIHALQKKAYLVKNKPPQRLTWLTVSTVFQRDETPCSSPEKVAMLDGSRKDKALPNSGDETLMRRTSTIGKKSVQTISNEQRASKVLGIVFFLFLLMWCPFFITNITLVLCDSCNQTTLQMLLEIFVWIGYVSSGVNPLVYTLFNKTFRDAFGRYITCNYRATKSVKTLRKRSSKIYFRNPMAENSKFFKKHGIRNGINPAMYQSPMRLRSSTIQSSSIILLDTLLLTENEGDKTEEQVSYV
UniProt P0DMS8, whole entry: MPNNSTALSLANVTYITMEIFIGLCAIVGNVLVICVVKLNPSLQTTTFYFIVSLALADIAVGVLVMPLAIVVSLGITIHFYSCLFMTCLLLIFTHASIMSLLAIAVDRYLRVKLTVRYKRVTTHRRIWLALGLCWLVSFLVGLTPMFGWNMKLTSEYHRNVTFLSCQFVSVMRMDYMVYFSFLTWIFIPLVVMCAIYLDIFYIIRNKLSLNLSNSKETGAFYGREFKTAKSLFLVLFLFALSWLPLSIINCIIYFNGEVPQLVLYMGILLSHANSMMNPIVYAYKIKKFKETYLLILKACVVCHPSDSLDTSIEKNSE

What was measured:
5HT2B = 5HT2B (Homo sapiens, UniProt P41595); test: biochemical
hA3AR = hA3AR (Homo sapiens, UniProt P0DMS8); settings: modulator 0.1 μM

With CCCC(CCC)c1nc2c(Nc3ccc(I)cc3)nc3ccccc3c2[nH]1 [Compound 39, 2-(Heptan-4-yl)-N-(4-iodophenyl)-1H-imidazo[4,5-c]quinolin-4-amine] as the compound, how does the Ki (5HT2B) read?
Its Ki is 2600 nM.

For COC(=O)/C=C/c1ccc(Nc2nc3ccccc3c3[nH]c(C4CCCCC4)nc23)cc1 [Compound 37, Methyl (E)-3-(4-((2-cyclohexyl-1H-imidazo[4,5-c]quinolin-4-yl)amino)phenyl)acrylate], which “enhancement of agonist efficacy at 0.1 μM” value (hA3AR) is on record?
The value was “significantly enhanced agonist efficacy”.
